The target of test [1] is T1, full-length B-Catenin (Uniprot ID P35222) (Homo sapiens, UniProt P35222).
T1 construct: 10 nM full-length B-Catenin (Uniprot ID P35222)
Kind of test: biochemical. The conditions noted are these: beta-Catenin FP IC50 (nM), competition fluorescence polarization. The class given is binding. A general note: In fluorescence polarisation assays a small probe gives low polarisation when free and higher when bound to something large.

By UniProt entry, the sequences of proteins in these tests, tags left out.
UniProt P35222, whole entry: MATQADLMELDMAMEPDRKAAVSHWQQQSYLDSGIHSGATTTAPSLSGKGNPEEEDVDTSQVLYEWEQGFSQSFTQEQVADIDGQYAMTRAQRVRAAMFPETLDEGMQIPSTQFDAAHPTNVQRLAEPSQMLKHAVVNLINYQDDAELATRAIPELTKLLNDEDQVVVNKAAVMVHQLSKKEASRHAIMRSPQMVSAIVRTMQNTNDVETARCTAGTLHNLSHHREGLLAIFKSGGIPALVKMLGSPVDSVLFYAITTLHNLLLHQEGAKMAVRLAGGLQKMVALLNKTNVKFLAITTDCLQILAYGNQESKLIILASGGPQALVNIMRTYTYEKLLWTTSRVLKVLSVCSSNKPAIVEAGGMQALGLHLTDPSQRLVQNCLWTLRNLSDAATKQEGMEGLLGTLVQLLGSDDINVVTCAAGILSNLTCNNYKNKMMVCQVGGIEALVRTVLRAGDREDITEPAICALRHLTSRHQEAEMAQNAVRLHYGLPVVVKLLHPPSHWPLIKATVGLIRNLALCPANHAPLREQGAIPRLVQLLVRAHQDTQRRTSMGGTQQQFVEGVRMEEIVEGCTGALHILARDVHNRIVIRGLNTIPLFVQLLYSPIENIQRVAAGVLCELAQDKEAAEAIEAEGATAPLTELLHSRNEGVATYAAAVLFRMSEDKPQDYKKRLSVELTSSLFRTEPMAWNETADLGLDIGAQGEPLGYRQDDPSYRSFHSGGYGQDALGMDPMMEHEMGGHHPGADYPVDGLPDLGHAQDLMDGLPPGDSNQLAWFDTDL

Test [2] concerns the target beta-catenin/TCF4 interaction (Homo sapiens, UniProt P35222). Kind of test: cell-based. Further details: host or cells: HEK293. As to conditions: NanoBRET Abs IC50 (uM), absolute IC50.

A value given as a limit tells only on which side of the number the result lay.

As to `CC(=O)N1CCC[C@]12CC=CCCCC1(CCCC=CCCCOC(=O)N3CC[C@@]4(C3)NC(=O)[C@H](CCCCNC(=O)CC[C@@H](C(=O)N[C@@H](C)C(=O)N[C@@H](CCC(=O)O)C(=O)N[C@@H](C)C(N)=O)NC(=O)[C@H](Cc3csc5ccccc35)NC(=O)[C@H](Cc3ccsc3)NC4=O)NC(=O)[C@H](Cc3ccccc3)NC(=O)[C@H](C)NC(=O)C(C)(C)NC(=O)[C@H](Cc3cccc(C(=O)O)c3)NC(=O)[C@H](CC(=O)O)NC1=O)NC(=O)[C@H](CC(C)(C)C)NC(=O)[C@H](CC(=O)O)NC2=O` (relative stereo) [I-343, Ac-PL3-Asp-Npg-B5-Asp-3COOHF-Aib-Ala-Phe-Lys*3-PyrS2-3Thi-BztA-GlnR*3-Ala-Glu-Ala-NH2], the IC50 in test [1] is less than 50 nM; in test [2], 1.5 to 3 µM.

As for `CC(=O)N1CCC[C@]12CC=CCCCC1(CCCC=CCCCOC(=O)N3CC[C@@]4(C3)NC(=O)[C@H](CCCCNC(=O)CC[C@@H](C(=O)N[C@@H](C)C(N)=O)NC(=O)[C@H](Cc3csc5ccccc35)NC(=O)[C@H](Cc3ccccc3C(=O)O)NC4=O)NC(=O)[C@H](Cc3ccccc3)NC(=O)[C@H](C)NC(=O)C(C)(C)NC(=O)[C@H](Cc3cccc(C(=O)O)c3)NC(=O)[C@H](CC(=O)O)NC1=O)NC(=O)[C@H](CC(C)(C)C)NC(=O)[C@H](CC(=O)O)NC2=O` (relative stereo) [I-344, Ac-PL3-Asp-Npg-B5-Asp-3COOHF-Aib-Ala-Phe-Lys*3-PyrS2-2COOHF-BztA-GlnR*3-Ala-NH2], the IC50 was less than 50 nM in test [1] and more than 10 µM in test [2].

As for `CC(=O)N1CCC[C@]12CC=CCCCC1(CCCC=CCCCOC(=O)N3CC[C@@]4(C3)NC(=O)[C@H](CCCCNC(=O)CC[C@@H](C(=O)N[C@@H](C)C(N)=O)NC(=O)[C@H](Cc3csc5ccccc35)NC(=O)[C@H](Cc3ccsc3)NC4=O)NC(=O)[C@H](Cc3cccc(C(=O)O)c3)NC(=O)[C@H](C)NC(=O)C(C)(C)NC(=O)[C@H](Cc3cccc(C(=O)O)c3)NC(=O)[C@H](CC(=O)O)NC1=O)NC(=O)[C@H](CC(C)(C)C)NC(=O)[C@H](CC(=O)O)NC2=O` (relative stereo) [I-345, Ac-PL3-Asp-Npg-B5-Asp-3COOHF-Aib-Ala-3COOHF-Lys*3-PyrS2-3Thi-BztA-GlnR*3-Ala-NH2], the half-inhibitory concentration (IC50) was less than 50 nM in test [1] and 3 to 10 µM in test [2].

In the case of `CC(=O)N1CCC[C@]12CC=CCCCC1(CCCC=CCCCOC(=O)N3CC[C@@]4(C3)NC(=O)[C@H](CCCCNC(=O)CC[C@@H](C(=O)N[C@@H](C)C(=O)N[C@@H](CCC(=O)O)C(=O)N[C@@H](C)C(N)=O)NC(=O)[C@H](Cc3csc5ccccc35)NC(=O)[C@H](Cc3ccccc3C(=O)O)NC4=O)NC(=O)[C@H](Cc3cccc(C(=O)O)c3)NC(=O)[C@H](C)NC(=O)C(C)(C)NC(=O)[C@H](Cc3cccc(C(=O)O)c3)NC(=O)[C@H](CC(=O)O)NC1=O)NC(=O)[C@H](CC(C)(C)C)NC(=O)[C@H](CC(=O)O)NC2=O` (relative stereo) [I-347, Ac-PL3-Asp-Npg-B5-Asp-3COOHF-Aib-Ala-3COOHF-Lys*3-PyrS2-2COOHF-BztA-GlnR*3-Ala-Glu-Ala-NH2], the IC50 is 50 to 200 nM in test [1] and more than 10 µM in test [2].

For the molecule `CC(=O)N1CCC[C@]12CC=CCCCC1(CCCC=CCCCOC(=O)N3CC[C@@]4(C3)NC(=O)[C@H](CCCCNC(=O)CC[C@@H](C(=O)N[C@@H](C)C(=O)O)NC(=O)[C@H](Cc3csc5ccccc35)NC(=O)[C@H](Cc3ccccc3C(=O)O)NC4=O)NC(=O)[C@H](Cc3ccccc3)NC(=O)[C@H](C)NC(=O)C(C)(C)NC(=O)[C@H](Cc3cccc(C(=O)O)c3)NC(=O)[C@H](CC(=O)O)NC1=O)NC(=O)[C@H](CC(C)(C)C)NC(=O)[C@H](CC(=O)O)NC2=O` (relative stereo) [I-349, Ac-PL3-Asp-Npg-B5-Asp-3COOHF-Aib-Ala-Phe-Lys*3-PyrS2-2COOHF-BztA-GlnR*3-Ala-OH], the IC50 in test [1] was less than 50 nM; in test [2], more than 10 µM.

As to `CC(=O)N1CCC[C@]12CC=CCCCC1(CCCC=CCCCOC(=O)N3CC[C@@]4(C3)NC(=O)[C@H](CCCCNC(=O)CC[C@@H](C(=O)N[C@@H](C)C(=O)O)NC(=O)[C@H](Cc3csc5ccccc35)NC(=O)[C@H](Cc3ccsc3)NC4=O)NC(=O)[C@H](Cc3cccc(C(=O)O)c3)NC(=O)[C@H](C)NC(=O)C(C)(C)NC(=O)[C@H](Cc3cccc(C(=O)O)c3)NC(=O)[C@H](CC(=O)O)NC1=O)NC(=O)[C@H](CC(C)(C)C)NC(=O)[C@H](CC(=O)O)NC2=O` (relative stereo) [I-350, Ac-PL3-Asp-Npg-B5-Asp-3COOHF-Aib-Ala-3COOHF-Lys*3-PyrS2-3Thi-BztA-GlnR*3-Ala-OH], the IC50 in test [1] was less than 50 nM; in test [2] it was more than 10 µM.

For the molecule `CC(=O)N1CCC[C@]12CC=CCCCC1(CCCC=CCCCOC(=O)N3CC[C@@]4(C3)NC(=O)[C@H](CCCCNC(=O)CC[C@@H](C(=O)N[C@@H](C)C(=O)O)NC(=O)[C@H](Cc3csc5ccccc35)NC(=O)[C@H](Cc3ccccc3C(=O)O)NC4=O)NC(=O)[C@H](Cc3cccc(C(=O)O)c3)NC(=O)[C@H](C)NC(=O)C(C)(C)NC(=O)[C@H](Cc3cccc(C(=O)O)c3)NC(=O)[C@H](CC(=O)O)NC1=O)NC(=O)[C@H](CC(C)(C)C)NC(=O)[C@H](CC(=O)O)NC2=O` (relative stereo) [I-351, Ac-PL3-Asp-Npg-B5-Asp-3COOHF-Aib-Ala-3COOHF-Lys*3-PyrS2-2COOHF-BztA-GlnR*3-Ala-OH], the IC50 in test [1] is 50 to 200 nM; in test [2], more than 10 µM.

`CC(=O)N1CCC[C@]12CC=CCCCC1(CCCC=CCCCOC(=O)N3CC[C@@]4(C3)NC(=O)[C@H](CCCCNC(=O)CC[C@@H](C(=O)N[C@@H](C)C(=O)N[C@@H](CCC(=O)O)C(=O)N[C@@H](C)C(=O)O)NC(=O)[C@H](Cc3csc5ccccc35)NC(=O)[C@H](Cc3ccccc3C(=O)O)NC4=O)NC(=O)[C@H](Cc3cccc(C(=O)O)c3)NC(=O)[C@H](C)NC(=O)C(C)(C)NC(=O)[C@H](Cc3cccc(C(=O)O)c3)NC(=O)[C@H](CC(=O)O)NC1=O)NC(=O)[C@H](CC(C)(C)C)NC(=O)[C@H](CC(=O)O)NC2=O` (relative stereo) [I-352, Ac-PL3-Asp-Npg-B5-Asp-3COOHF-Aib-Ala-3COOHF-Lys*3-PyrS2-2COOHF-BztA-GlnR*3-Ala-Glu-Ala-OH]: the results for the half-inhibitory concentration (IC50) in test [1] and in test [2] were 50 to 200 nM and more than 10 µM, respectively.

Regarding `CC(=O)N1CCC[C@]12CC=CCCCC1(CCCC=CCCCOC(=O)N3CC[C@@]4(C3)NC(=O)[C@H](CCCCNC(=O)CC[C@@H](C(=O)N[C@@H](C)C(N)=O)NC(=O)[C@H](Cc3csc5ccccc35)NC(=O)[C@H](Cc3ccsc3)NC4=O)NC(=O)[C@H](CC3CCCC3)NC(=O)[C@H](C)NC(=O)C(C)(C)NC(=O)[C@H](Cc3cccc(C(=O)O)c3)NC(=O)[C@H](CC(=O)O)NC1=O)NC(=O)[C@H](CC(C)(C)C)NC(=O)[C@H](CC(=O)O)NC2=O` (relative stereo) [I-354, Ac-PL3-Asp-Npg-B5-Asp-3COOHF-Aib-Ala-CypA-Lys*3-PyrS2-3Thi-BztA-GlnR*3-Ala-NH2], the IC50 in test [1] was 50 to 200 nM; in test [2], more than 10 µM.

As for `CC(=O)N1CCC[C@]12CC=CCCCC1(CCCC=CCCCOC(=O)N3CC[C@@]4(C3)NC(=O)[C@H](CCCCNC(=O)CC[C@@H](C(=O)N[C@@H](C)C(N)=O)NC(=O)[C@H](Cc3csc5ccccc35)NC(=O)[C@H](Cc3ccsc3)NC4=O)NC(=O)[C@H](Cc3csc4ccccc34)NC(=O)[C@H](C)NC(=O)C(C)(C)NC(=O)[C@H](Cc3cccc(C(=O)O)c3)NC(=O)[C@H](CC(=O)O)NC1=O)NC(=O)[C@H](CC(C)(C)C)NC(=O)[C@H](CC(=O)O)NC2=O` (relative stereo) [I-355, Ac-PL3-Asp-Npg-B5-Asp-3COOHF-Aib-Ala-BztA-Lys*3-PyrS2-3Thi-BztA-GlnR*3-Ala-NH2], the IC50 in test [1] was less than 50 nM; in test [2], 3 to 10 µM.

As for `CC(=O)N1CCC[C@]12CC=CCCCC1(CCCC=CCCCOC(=O)N3CC[C@@]4(C3)NC(=O)[C@H](CCCCNC(=O)CC[C@@H](C(=O)N[C@@H](C)C(N)=O)NC(=O)[C@H](Cc3csc5ccccc35)NC(=O)[C@H](Cc3ccsc3)NC4=O)NC(=O)[C@H](Cc3cccc4ccccc34)NC(=O)[C@H](C)NC(=O)C(C)(C)NC(=O)[C@H](Cc3cccc(C(=O)O)c3)NC(=O)[C@H](CC(=O)O)NC1=O)NC(=O)[C@H](CC(C)(C)C)NC(=O)[C@H](CC(=O)O)NC2=O` (relative stereo) [I-356, Ac-PL3-Asp-Npg-B5-Asp-3COOHF-Aib-Ala-1NapA-Lys*3-PyrS2-3Thi-BztA-GlnR*3-Ala-NH2], the IC50 was less than 50 nM in test [1] and more than 10 µM in test [2].

On to `CC(=O)N1CCC[C@]12CC=CCCCC1(CCCC=CCCCOC(=O)N3CC[C@@]4(C3)NC(=O)[C@H](CCCCNC(=O)CC[C@@H](C(=O)N[C@@H](C)C(N)=O)NC(=O)[C@H](Cc3csc5ccccc35)NC(=O)[C@H](Cc3ccsc3)NC4=O)NC(=O)[C@H](Cc3ccc4ccccc4c3)NC(=O)[C@H](C)NC(=O)C(C)(C)NC(=O)[C@H](Cc3cccc(C(=O)O)c3)NC(=O)[C@H](CC(=O)O)NC1=O)NC(=O)[C@H](CC(C)(C)C)NC(=O)[C@H](CC(=O)O)NC2=O` (relative stereo) [I-357, Ac-PL3-Asp-Npg-B5-Asp-3COOHF-Aib-Ala-2NapA-Lys*3-PyrS2-3Thi-BztA-GlnR*3-Ala-NH2], for which the IC50 in test [1] was less than 50 nM; in test [2], 3 to 10 µM.

`CC(=O)N1CCC[C@]12CC=CCCCC1(CCCC=CCCCOC(=O)N3CC[C@@]4(C3)NC(=O)[C@H](CCCCNC(=O)CC[C@@H](C(=O)N[C@@H](C)C(N)=O)NC(=O)[C@H](Cc3csc5ccccc35)NC(=O)[C@H](Cc3ccsc3)NC4=O)NC(=O)[C@H](Cc3ccc(O)cc3)NC(=O)[C@H](C)NC(=O)C(C)(C)NC(=O)[C@H](Cc3cccc(C(=O)O)c3)NC(=O)[C@H](CC(=O)O)NC1=O)NC(=O)[C@H](CC(C)(C)C)NC(=O)[C@H](CC(=O)O)NC2=O` (relative stereo) [I-358, Ac-PL3-Asp-Npg-B5-Asp-3COOHF-Aib-Ala-Tyr-Lys*3-PyrS2-3Thi-BztA-GlnR*3-Ala-NH2]: the IC50 in test [1] was less than 50 nM; in test [2], 1.5 to 3 µM.

For orientation: IC50 means the concentration that gives 50% inhibition. A higher IC50 goes with weaker potency.

The values are drawn from US20240360179A1, “STAPLED PEPTIDES AND METHODS THEREOF” (FOG PHARMACEUTICALS, INC., priority 2021, published 2024).
